Compound activity as filed in PubChem.
miR-21 reporter – miR-21 reporter, rising signal; HeLa miR-21 FLuc reporter, luciferase, 48 h; Potency, µM (titrated, usually from 38.3 µM), without a hit: top-dose reporter change, positive = more light; AID 2288; 340,000 tested, under 10 active; active = well fitted rising curve with a large enough effect; inconclusive = small, poorly fitted or top-dose-only effect; inactive = no such curve, though single readings can be large or run the other way;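 further: % of control where 0% means no effect; miR-21 action dims this reporter so a rising signal means less miR-21 action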
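HeLa miR-21-FLuc reporter line, endogenous miR-21; 2000 cells/well in DMEM/10% FBS; compound titration up to ~40uM final, 48 h, 37 degree Celsius; luciferase detection reagent, 15 min lysis, CCD luminescence.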
Nrf2 inh – Nrf2 pathway inhibition | Potency, µM (doses to about 46 µM), for the others: top-dose activity change, negative = inhibition, usual class: inhibitors | A549 ARE-Fluc reporter, luciferase luminescence, 18-24 h | 2.1% of 360,000 active | AID 504444; note: potency is the fitted concentration of half-maximal effect; % is set by controls: 0 for no effect and ±100 for the full control effect; nearly all actives have a fitted effect of over 60% in size
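Cells were seeded and rested 2 h, then exposed to compounds for 18-24 h. CellTiter-Fluor was read first as a viability measure. BugLite was added 15 min before the final luminescent read of ARE-luciferase activity in A549 cells.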
Nrf2 ARE act – Nrf2 pathway activation; 0.31% of 410,000 active; AREc32 ARE-luciferase reporter (MCF7-derived line), luminescence, 24 h; AID 624171; Potency, µM (top dose mostly 46.1 µM), without a hit: at the top dose activation, hits mostly activators; note: potency is the fitted concentration of half-maximal effect; % of control where 0% means no effect; nearly all actives have a fitted effect of over 65% in size
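Reporter line AREc32 (ARE-Fluc), seeded overnight in OPTI-MEM with 5% FBS; compound pin-transferred, 24 hr at 37 deg C, 5% CO2; luminescent read-out.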
TCR act – activates T cell receptor signaling; primary human leukocytes, anti-CD3, IL-2 HTRF, 48 h; 330,000 tested, under 10 active; Potency, µM (highest dose often 9.22 µM), without a hit: at the top dose activation of IL-2 secretion, most hits filed as activators; AID 504894; note: % of control where 0% means no effect
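Human primary leukocytes + a-CD3 beads + cpd, 48 hr; IL-2 in supernatant by HTRF (ex 320nm / em 665nm). No co-stimulatory signal supplied.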
ClpP mod – qHTS Assay for Activators of ClpP; purified B. subtilis ClpP, FRET peptide cleavage, 20 min; Potency, µM (top dose mostly 57.5 µM), for inactives: top-dose activity change, negative = active; 1.9% of 340,000 active; AID 651965, 2013; active = well fitted falling curve with a large enough effect; inconclusive = small, poorly fitted or top-dose-only effect; inactive = no such curve, though single readings can be large or run the other way; note: potency is the fitted concentration of half-maximal effect; the source files actives as falling curves though it sought activators and does not explain the sign; nearly all actives have a fitted effect of over 65% in size
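FRET quenching reversal measured ClpP activation: 10 microg/mL B. subtilis ClpP at pH 8 with the FRET-FV decapeptide, read at 430 nm after 320 nm excitation. The 20-min minus 0-min signal was scaled between DMSO/no-enzyme wells and ADEP (5.8 microM final).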
A549 tox – A549 cytotoxicity, counter-screen for Nrf2 inhibitors; Potency, µM (highest dose often 46 µM), for the others: top-dose activity change, negative = cytotoxicity, actives largely listed as inhibitors; A549 ARE-Fluc cells, CellTiter-Fluor viability, 18-24 h; 0.16% of 390,000 active; note: potency is the fitted concentration of half-maximal effect; % is set by controls: 0 for no effect and ±100 for the full control effect
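A549 ARE-Fluc cells in 5% FBS OPTI-MEM, 5000 cells/well, rested 2 h then exposed to compounds in concentration-response for 18-24 h at 37 °C. Viability by CellTiter-Fluor fluorescence (Ex 405/Em 525) after 30 min; luciferase luminescence (BugLite, 15 min, RT) read afterwards.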
* marks the source's active call; other numbers are inactive results; ? = inconclusive; . = no result given; [ ] = another dose, or the depositor's remark. In the library only some 3.7% were active in any assay of this set; here they are far more common. Unless noted, calls come from the whole dose curve; as a rule, active = well fitted curve in the direction sought with a large enough effect; inconclusive = small, poorly fitted or top-dose-only effect, or another doubt; inactive = no such curve, though single readings can be large; an effect the other way counts as inactive or inconclusive.

smiles | miR-21 reporter | Nrf2 inh | Nrf2 ARE act | TCR act | ClpP mod | A549 tox
CCOc1ccc(C(=O)CC(Sc2ccc(C)cc2)C(=O)O)cc1 (configuration not stated) | 3.6% | -3.4% | 17.8µM* | -0.5% | . | 0.0%
CCCc1cnc(Nc2nc(C(N)Cc3ccc(C(F)(F)F)cc3)cs2)nc1 (configuration not stated) | . | . | 1.1% | . | 0.0% | .
NC(=O)c1nc[nH]c1C(=O)Nc1cccc(NC(=O)c2cccc(C(F)(F)F)c2)c1 | . | ? | 29.7% | 1.4% | 15.9% | -2.7%
CCCCN(C(C)=O)c1ccc2c(c1)C1CC2CCN1C(=O)OCc1ccccc1 (configuration not stated) | . | 23.1µM* | 4.4% | -1.7% | 3.1% | -10.3%
Cc1ccc(C=Nc2ccccc2C(N)=O)s1 | -0.8% | 10.8% | 3.0% | 1.6%[46.1 µM] | 8.91µM* | -3.9%
Cc1ccc(/C=N/N=C/c2ccc(C)s2)s1 | -63.5% | ? | 11.6% | -1.8%[46.1 µM] | 0.2% | 0.1%
Cc1cccc(C=Nc2ccccc2C(N)=O)c1 | 7.8% | 8.8% | 4.5% | -2.7% | 22.4µM* | -19.5%
COc1ccccc1N1CCN(/N=C/c2cc(OC)c(O)c(OC)c2)CC1 | -15.3% | 17.0% | 3.7% | 2.9%[46.1 µM] | -2.8% | -1.5%
COc1cc(/C=N/N2CCN(c3ccccc3OC)CC2)ccc1OC(C)=O | -26.0% | 3.8% | 4.5% | . | 28.2µM* | -9.3%
Cc1ccc(S(=O)(=O)NCCC(=O)Nc2cc(S(=O)(=O)N(C)C)ccc2C)cc1C | 0.4% | 7.31µM* | -0.6% | 10.4% | . | 0.5%
COc1ccc(S(=O)(=O)NCCSCc2ccc(Cl)cc2)cc1NC(C)=O | . | ? | 0.0% | 4.8% | 2.4% | -7.7%
O=C(COC(=O)/C=C/c1ccccc1[N+](=O)[O-])NCc1ccco1 | . | 3.1% | 14.1µM* | 4.1% | . | 6.0%
O=C(c1cccc(Br)c1)N1CCCc2ccccc21 | -0.5% | -5.8% | -0.5% | 0.0% | 0.3% | -1.7%
CC1CCN(C(=O)c2cc(-c3ccco3)on2)CC1 | -78.9% | ? | 14.1µM* | -7.8% | . | -1.9%
O=C(c1coc(=O)c(Br)c1)N1CCCc2ccccc21 | -13.9% | ? | 8.0% | 1.0% | 12.6µM* | -0.5%
O=C(c1coc(=O)c(Br)c1)N1CCC(C(O)(c2ccccc2)c2ccccc2)CC1 | -7.6% | 4.3% | ? | 0.4% | ? | -4.8%
CC1(C)CCCN(C(=O)c2coc(=O)c(Br)c2)C1 | 0.2% | 12.8% | ? | -2.0% | 25.1µM* | -1.2%
O=C(c1cc(-c2ccco2)on1)N1CCCc2ccccc21 | -20.8% | ? | 11.2µM* | -8.6% | -1.6% | 12.8%
COc1cc(NC(=O)c2cc(C3CC3)nc3c2c(C)nn3-c2ccc(C)cc2)cc(OC)c1 | 7.0% | ? | 5.3% | . | 4.2% | -0.2%
CCCCC(OC(=O)CNC(=O)c1ccccc1)C(=O)Nc1cc(C(F)(F)F)ccc1Cl (configuration not stated) | . | ? | . | . | . | 8.2%
O=C(c1cc(-c2ccco2)on1)N1CCc2ccccc2C1 | -27.8% | ? | 14.1µM* | 8.2% | -5.7% | 2.8%
N/C(=N\OC(=O)c1cccc(Br)c1)c1ccccc1 | -54.2% | . | 7.08µM* | -5.8% | -0.8% | -0.9%
N/C(=N\OC(=O)c1cccc(Br)c1)c1ccccn1 | -17.8% | ? | ? | 0.1% | -1.2% | 1.2%
Cc1ccc(C(=O)O/N=C(\N)c2cccc([N+](=O)[O-])c2)cc1 | -48.1% | ? | ? | -0.2% | 1.1% | -7.0%
N/C(=N\OC(=O)c1ccco1)c1cccc(Br)c1 | -62.8% | ? | 4.47µM* | 0.3% | -1.4% | 0.0%
N/C(=N\OC(=O)/C=C/c1ccccc1)c1ccccc1 | -51.7% | ? | 11.2µM* | 7.2% | 0.2% | -8.0%
N/C(=N\OC(=O)c1ccco1)c1cccc([N+](=O)[O-])c1 | -52.5% | ? | 14.1µM* | -2.7% | . | 1.5%
COc1ccc(/C(N)=N/OC(=O)c2ccco2)cc1OC | -77.6% | ? | ? | 2.3% | . | -3.3%

Fetched by compound from the entries so far:
smiles | miR-21 reporter | Nrf2 inh | Nrf2 ARE act | TCR act | ClpP mod | A549 tox
N/C(=N\OC(=O)c1ccco1)c1cccc(Br)c1 | -62.8% | ? | 4.47µM* | 0.3% | -1.4% | 0.0%
N/C(=N\OC(=O)c1cccc(Br)c1)c1ccccn1 | -17.8% | ? | ? | 0.1% | -1.2% | 1.2%
Cc1ccc(C(=O)O/N=C(\N)c2cccc([N+](=O)[O-])c2)cc1 | -48.1% | ? | ? | -0.2% | 1.1% | -7.0%
O=C(c1coc(=O)c(Br)c1)N1CCCc2ccccc21 | -13.9% | ? | 8.0% | 1.0% | 12.6µM* | -0.5%
